Literature values in patent US10500256B2, “Polymers for delivery of therapeutic proteins” (BOARD OF REGENTS, THE UNIVERSITY OF TEXAS SYSTEM, priority 2014, dated 2019).

Settings: in vivo; cited from earlier work

Substance: 1-deamino-8-D-arginine-vasopressin
- Absorption: 1%
